Laboratory results: patent US7163920B2, “Peptide with osteogenic activity” (Ethicon, Inc., priority 2003, dated 2007)

Tested on: Primary human osteoblasts
Experiment: 3H-thymidine incorporation, proliferative response of human osteoblasts
Assay type: cell-based
Details: Table 2 (Example 2); BMP-2 10 ng/ml
Description: The effect of the peptide (CGGGRWCG, Cys-Gly-Gly-Gly-Arg-Trp-Cys-Gly (SEQ. ID NO: 1)) on the stimulation of osteoblast proliferation was assessed in a short-term assay via measurement of the amount of the nucleotide thymidine that was incorporated into newly synthesized DNA.
Primary human osteoblasts were trypsinized and cell counts determined. Cells were resuspended at a concentration of 0.5×10^5 cells/ml in growth medium [Dulbeccos Modified Eagles Medium (DMEM) 10% Fetal Bovine Serum (FBS), 100 units Penicillin and 50 μg/ml Streptomycin]. A 100 μl aliquot of cells was added to each well in a 96 well dish. Cells were allowed to adhere for 24 hours and then refed with DMEM containing 0.5% FBS for 24 hours. Thereafter, several concentrations (10, 100, 500 μg/ml final concentration) of peptide in DMEM containing 0.5% FBS were added to different wells in quadruplicate. These plates were incubated in a cell culture incubator at 37° C. 5% CO2 for 48 hours. […] Cells were lysed and the lysate was placed in scintillation fluid and the amount of thymidine incorporated was determined by beta counting (in Counts Per Minute, or CPM). […]
Experiments were performed comparing the stimulatory effect of the CGGGRWCG peptide (SEQ. ID NO: 1) to BMP-2. The experiments were set up as described for Example 1, with proliferation assessed by measurement of thymidine incorporation into newly synthesized DNA. […]

B1: BMP-2: bone morphogenic protein used as comparator for osteoblast proliferation (protein, UniProt P12643 283-396, looked up)
Bone morphogenetic protein 2: QAKHKQRKRLKSSCKRHPLYVDFSDVGWNDWIVAPPGYHAFYCHGECPFPLADHLNSTNHAIVQTLVNSVNSKIPKACCVPTELSAISMLYLDENEKVVLKNYQDMVVEGCGCR
- 3H-Thymidine Incorporation Into Osteoblasts: 4232 +/− 155 CPM
